# Reference: PubChem BioAssay AID588795 (National Center for Advancing Translational Sciences (NCATS), 2011)
# Protein sequences, listed by entry. Tags and fused reporters are not part of them.
# UniProt P39748, whole entry, looked up: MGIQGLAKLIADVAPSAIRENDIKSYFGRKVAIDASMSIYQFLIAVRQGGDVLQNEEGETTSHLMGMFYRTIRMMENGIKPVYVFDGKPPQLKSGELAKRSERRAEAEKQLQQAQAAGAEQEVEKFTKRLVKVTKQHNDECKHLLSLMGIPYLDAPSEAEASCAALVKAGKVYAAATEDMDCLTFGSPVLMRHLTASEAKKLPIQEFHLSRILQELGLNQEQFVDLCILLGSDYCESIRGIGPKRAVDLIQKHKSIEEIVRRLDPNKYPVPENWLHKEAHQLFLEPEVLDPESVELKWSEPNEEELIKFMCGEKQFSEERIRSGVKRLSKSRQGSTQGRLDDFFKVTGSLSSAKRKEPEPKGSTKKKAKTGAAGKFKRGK
# This is a selection; strong and weak results do not stand in their true shares. Activity calls are given as the source filed them. The call rests on the fitted dose curve; in most records, active means well fitted inhibition curve with a large enough effect; inconclusive means small, poorly fitted or top-dose-only effect; inactive means no such curve, though single readings can be large or run the other way.
# Biological target: Flap endonuclease 1 (Homo sapiens) (UniProt P39748)
# Assay: qHTS Assay for the Inhibitors of Human Flap endonuclease 1 (FEN1). Further: nearly all actives have a fitted effect of over 65% in size.
# Conditions: Recombinant FEN1 flap cleavage, fluorescence, 15 min; series mostly up to 114 µM; activity change, negative = inhibition: at the top concentration
# On the % scale 0 is the no-effect control and ±100 the full control effect.
row,Compound,"activity change, negative = inhibition"
1,O=[N+]([O-])c1cc([N+](=O)[O-])c2nc[nH]c2c1,inactive: -1.89%
2,Cc1ccc(NP(=O)(Oc2cccc(C)c2)Oc2cccc(C)c2)nc1,inactive: -5.16%
3,c1ccc(-c2nn[nH]n2)c(-c2nn[nH]n2)c1,inactive: -3.44%
4,O=C(NC1CCS(=O)(=O)C1)NP(=S)(Oc1ccccc1)Oc1ccccc1 (stereo not given),inactive: -1.75%
5,CCNC(=S)/N=C(\N)N[N+](=O)[O-],inactive: -2.51%
6,CCC(=O)N1C2C3N(C(=O)CC)C1C1N(C(=O)CC)C(C(N1C(=O)CC)N3C(=O)CC)N2C(=O)CC,inactive: -1.03%
7,O=C(OC1CN2CCC1CC2)c1ccccc1 (stereo not given),inactive: 4.59%
8,Cc1ccc(OP(=O)(Nc2ccccn2)Oc2ccc(C)cc2)cc1,inactive: -11.4%
9,CC(=O)NC(SC(=S)N(CC(C)C)CC(C)C)C(Cl)(Cl)Cl (stereo not given),inactive: 7.88%
10,CC(NC(=O)COC(=O)C(O)(c1ccccc1)c1ccccc1)c1ccccc1 (stereo not given),inactive: -4.7%
11,CCOc1ccc(C2=NCC(CBr)S2)cc1 (stereo not given),inactive: 4.36%
12,O=P1(Nc2nc3ccc(Cl)cc3s2)COc2ccccc2O1 (stereo not given),inactive: -1.43%
13,CCc1cc(O)c([N+](=O)[O-])c(C)c1[N+](=O)[O-],inactive: 7.8%
14,C[C@@H]1C=CCP(=O)(Oc2ccccc2)O1 (stereo not given in full),inactive: 3.8%
15,C[C@H]1OP(=O)(Oc2ccccc2)C[C@@H]2O[C@@H]21 (stereo not given in full),inactive: -4.28%
16,Cc1ccccc1CN(C)C(=O)COC(=O)C(O)(c1ccccc1)c1ccccc1,inactive: -11.6%
17,N#C/C(=C\c1ccc(N(CCBr)CCBr)cc1)C(N)=O,inactive: 1.62%
18,CC(=O)Nc1ccc(Oc2c([N+](=O)[O-])cc([N+](=O)[O-])cc2[N+](=O)[O-])cc1,inactive: -18.2%
19,CC(=O)Nc1ccc([As](=O)(O)O)c(O)c1,inactive: -0.757%
20,O=P(Nc1nccs1)(c1ccccc1)c1ccccc1,inactive: 9.54%
21,CC(C)C(=O)NC(Sc1ccccc1)C(Cl)(Cl)Cl (stereo not given),inactive: -4.83%
22,c1nnnn1CCn1cnnn1,inactive: -10.1%
23,CN(C)C1(CNC(=O)c2ccc(Cl)c(S(N)(=O)=O)c2)CCCCC1,inactive: 6.22%
24,COc1ccc(N)c([N+](=O)[O-])c1[N+](=O)[O-],inactive: -7.2%

row,Compound,"activity change, negative = inhibition"
1,C[C@H]1OP(=O)(Oc2ccccc2)[C@H](O)[C@H](O)[C@H]1N=[N+]=[N-] (stereo not given in full),inactive: -1.29%
2,O=P(Nc1nc2ccccc2s1)(c1ccccc1)c1ccccc1,inactive: -0.478%
3,O=[As](O)(c1ccccc1)c1ccc(O)cc1,inactive: 0.334%
4,O=[N+]([O-])c1ncn(CCn2cnc([N+](=O)[O-])n2)n1,inactive: 6.25%
5,CC(=O)NC(SC(=S)N(C)C)C(Cl)(Cl)Cl (stereo not given),inactive: -2.38%
6,O=C(OC1CN2CCC1CC2)c1cccc(Cl)c1 (stereo not given),inactive: 9.02%
7,Nc1ccc([As](=O)(O)c2ccc([N+](=O)[O-])cc2)cc1,inactive: 14.5%
8,C(Cc1nn[nH]n1)Cc1nn[nH]n1,inactive: -4.62%
9,O=P1(N(CCCl)CCCl)OCCCS1 (stereo not given),inactive: -0.895%
10,Cc1cc(C=O)ccc1N(CCCl)CCCl,inactive: 13.8%
11,O=C(Nc1cc([As](=O)(O)O)ccc1O)c1ccccc1,inactive: -9.2%
12,O=P(/N=c1/nc(-c2ccccc2)n(-c2ccccc2)s1)(Nc1ccccc1)Nc1ccccc1,inactive: -17%
13,O=[N+]([O-])c1ncn(CCn2ncnc2[N+](=O)[O-])n1,inactive: -2.63%
14,CC(C)(C)C(=O)NC(Sc1ccncn1)C(Cl)(Cl)Cl (stereo not given),inactive: -2.9%
15,O=C(O)CNc1ccc([As](=O)(O)O)cc1,inactive: -0.517%
16,COC(=O)C1(C)COP(=O)(Nc2ccccc2)OC1 (stereo not given),inactive: 2.14%
17,COc1ccc(C2=NCC(CBr)S2)cc1 (stereo not given),inactive: -5.7%
18,O=[N+]([O-])c1cc([N+](=O)[O-])c(CCNc2ccccc2)c([N+](=O)[O-])c1,inactive: 0.0091%
19,CCc1nc2c(n1)c1c(non1O)c1c2no[n+]1[O-],inactive: 6.94%
20,Cc1ccc(NP(=O)(Oc2ccccc2)Oc2ccccc2)nc1,inactive: -2.04%
21,CC(=O)N1C2C3N(C(C)=O)C1C1N(C(C)=O)C(C(N1C(C)=O)N3C(C)=O)N2C(C)=O,inactive: -11.8%
22,O=[N+]([O-])c1cccc2n[nH]nc12,inactive: 0.547%
23,CCN(/C(=N/P(=O)(N1CCOCC1)N1CCOCC1)N1CCOCC1)c1ccc(OC)cc1,inactive: 6%
24,Nc1ccc([As](=O)(O)c2ccc(N)cc2)cc1,inactive: 4.33%

row,Compound,"activity change, negative = inhibition"
1,CC1CCN(C(=O)Oc2c(Cl)cc(Cl)c3cccnc23)CC1,inactive: -18.7%
2,CN(C)C(=O)OCCc1n(C)cc[n+]1C,inactive: -0.186%
3,CC(C)=N/N=C(\N)N[N+](=O)[O-],inactive: -0.689%
4,COc1cc([N+](=O)[O-])c([N+](=O)[O-])cc1OC,inactive: -0.221%
5,Cc1ccc(N/C(=N/P(=O)(N2CCOCC2)N2CCOCC2)N2CCOCC2)cc1,inactive: 8.77%
6,CN(C(=O)Cc1ccc(Cl)c(Cl)c1)[C@H]1CCCC[C@H]1N1CCCC1,inactive: -17.5%
7,O=[N+]([O-])c1cc2c(cc1[N+](=O)[O-])OCO2,inactive: -2.97%
8,NC(=O)c1cc([N+](=O)[O-])cc([N+](=O)[O-])c1N,inactive: -2.5%
9,Clc1ccc(Cl)c(NC2=NCC(CBr)S2)c1 (stereo not given),inactive: -3.53%
10,CN1CCCC(OC(=O)C(c2ccccc2)c2ccccc2)C1 (stereo not given),inactive: 5.26%
11,Cc1ccc(OP(=O)(Nc2nccs2)Oc2ccc(C)cc2)cc1,inactive: -1.38%
12,COc1ccccc1OP(=O)(Nc1ccc(C)cn1)Oc1ccccc1OC,inactive: -4.83%
13,O=C(NC(Sc1ccncn1)C(Cl)(Cl)Cl)c1ccccc1 (stereo not given),inactive: 4.7%
14,Oc1ccccc1CNc1ccccn1,inactive: -12.5%
15,CC(C)CC(=O)NC(Sc1ccc(Cl)cc1)C(Cl)(Cl)Cl (stereo not given),inactive: -10.1%
16,Nc1cc(N)c2nonc2c1[N+](=O)[O-],inactive: -5.48%
17,O=P(Nc1nc2ccc(Cl)cc2s1)(c1ccccc1)c1ccccc1,inactive: -12.3%
18,CCCC1OP(N)(=O)OCC1CC (stereo not given),inactive: -2.27%
19,O=C(O)c1ccccc1[As](=O)(O)O,inactive: 18%
20,CC(=O)Nc1ccc([As](=O)(O)O)cc1,inactive: 3.61%
21,CN(C(=O)Cc1ccc(Cl)c(Cl)c1)[C@H]1CCCC[C@@H]1N1CCCC1,inactive: -1.06%
22,CCOP(=O)(Nc1ccccc1)OCC,inactive: 1.47%
23,Cc1cc(SC(NC(=O)c2ccc(F)cc2)C(Cl)(Cl)Cl)ncn1 (stereo not given),inactive: -9.02%
24,Nc1c(O)cc([N+](=O)[O-])cc1[N+](=O)[O-],inactive: -18%

row,Compound,"activity change, negative = inhibition"
1,Nc1cccc2ccc([As](=O)(O)O)cc12,inactive: 9.46%
2,COc1cc(C(=O)NCC2(N3CCOCC3)CCCCC2)ccc1OCC(C)C,inactive: 0.947%
3,O=[N+]([O-])c1ccc(-c2cc([N+](=O)[O-])c(O)c([N+](=O)[O-])c2)cc1,inactive: -18.5%
4,C[As](=O)(O)c1cccc(C(=O)O)c1,inactive: 4.36%
5,O=[As](O)(c1ccc(O)cc1)c1ccccc1O,inactive: 2.08%
6,ClCCN(CCCl)c1ccc(CC2C=CC=C2)cc1,inactive: -20.9%
7,Cc1ccc(OP(=O)(Nc2ccc([N+](=O)[O-])cn2)Oc2ccc(C)cc2)cc1,inactive: -13.5%
8,Cc1ccc2nc3c(c(C)c2c1)CC(C(Cl)Cl)S3 (stereo not given),inactive: 24.3%
9,O=Cc1ccc(NCCCl)cc1,inactive: -19.1%
10,ClCCSc1nnc(-c2cccnc2)o1,inactive: -0.475%
11,CC(C)c1ccc(OP(=O)(Nc2ccccn2)Oc2ccccc2F)cc1 (stereo not given),inactive: -15.9%
12,COC(=O)C1(C)COP(=O)(N2CCCCCC2)OC1 (stereo not given),inactive: -3.14%
13,O=[N+]([O-])c1cc([N+](=O)[O-])c(-c2ccn[nH]2)s1,inactive: -29.8%
14,O=C(OC1CN2CCC1CC2)c1cccc2[nH]cnc12 (stereo not given),inactive: 0.648%
15,CCN(CC)C(=S)SC(NC=O)C(Cl)(Cl)Cl (stereo not given),inactive: 11.2%
16,CC(C)NC(=O)NP(=O)(Oc1ccccc1)Oc1ccccc1,inactive: -1.12%
17,Cc1c2c(nc3ccccc13)SC(C(Cl)Cl)C2 (stereo not given),inactive: -35.8%
18,Cc1cc(=O)[nH]c(N[N+](=O)[O-])n1,inactive: 11%
19,O=C(OC1CN2CCC1CC2)C12CC3CC(CC(C3)C1)C2 (stereo not given),inactive: 1.36%
20,O=P1(N(CCCl)CCCl)OCCCN1CCCl (stereo not given),inactive: 4.4%
21,COc1cc(I)ccc1[As](=O)(O)O,inactive: -8.63%
22,COc1ccc2nc(NP(=O)(c3ccccc3)c3ccccc3)sc2c1,inactive: -12.7%
23,O=[N+]([O-])c1cc(Oc2ccc([N+](=O)[O-])cc2C(F)(F)F)cc([N+](=O)[O-])c1,inactive: -6.7%
24,COc1ccc(N/C(=N/P(=O)(N2CCOCC2)N2CCOCC2)N2CCOCC2)cc1,inactive: 8.9%

row,Compound,"activity change, negative = inhibition"
1,COP1(=S)c2c(C)nn(CCC#N)c2N=C(c2ccc(F)cc2)N1C (stereo not given),inactive: -10.5%
2,O=C(Nc1ccncc1[N+](=O)[O-])c1ccc([N+](=O)[O-])cc1[N+](=O)[O-],inactive: -1.43%
3,O=C(COc1ccccc1)OC1CN2CCC1CC2 (stereo not given),inactive: -4.09%
4,O=C(OC1CN2CCC1CC2)c1cccc([N+](=O)[O-])c1 (stereo not given),inactive: -7.77%
5,CCOC(=O)c1ccc(NC(=O)C(C)(CCl)SC)cc1 (stereo not given),inactive: -2.44%
6,CCC(C)N(CC(C)C)C(=S)SC(NC(C)=O)C(Cl)(Cl)Cl (stereo not given),inactive: -8.01%
7,CCOP(=O)(Nc1cccc2cccnc12)OCC,inactive: 2.72%
8,CCOC(=O)Nc1ccc([As](=O)(O)O)c(O)c1,inactive: -0.801%
9,CC1CCNP(=O)(N(CCCl)CCCl)O1 (stereo not given),inactive: -5.73%
10,Cc1cc(SC(NC(=O)c2ccccc2)C(Cl)(Cl)Cl)nc(C(C)C)n1 (stereo not given),inactive: -3.09%
11,CCCCOc1ccc(C(=O)NCC2(N3CCCCC3)CCCCC2)cc1OC,inactive: 0.777%
12,CCOC(=O)Nc1cccc([As](=O)(O)O)c1,inactive: 14.9%
13,Cc1cc(SC(NC=O)C(Cl)(Cl)Cl)ncn1 (stereo not given),inactive: -1.81%
14,O=P(Nc1ccccn1)(c1cccc2ccccc12)c1cccc2ccccc12,inactive: -15%
15,O=[N+]([O-])c1ccc(Nc2ccc(Oc3ccc([N+](=O)[O-])cc3[N+](=O)[O-])cc2)c([N+](=O)[O-])c1,inactive: -20.4%
16,COc1cc([N+](=O)[O-])ccc1[N+](=O)[O-],inactive: 12.5%
17,Cc1ccc(C(=O)OC2CN3CCC2CC3)cc1 (stereo not given),inactive: -3.55%
18,CC1CCC(C(C)C)C(OP(=O)(Nc2ccccn2)c2ccccc2)C1 (stereo not given),inactive: -14.6%
19,Cc1nn(-c2ccccc2)c2c1P(=O)(N1CCOCC1)N(C)C(c1ccccc1)=N2 (stereo not given),inactive: -8.82%
20,CN(C)C1(CNC(=O)c2ccc(S(C)(=O)=O)cc2)CCCCC1,inactive: -1.36%
21,CCCC1OP(=O)(Nc2ccccc2)OCC1CC (stereo not given),inactive: -8.57%
22,O=C(/C=C/c1ccccc1)OC1CN2CCC1CC2 (stereo not given),inactive: 1.24%
23,O=P1(Nc2ncccn2)COc2ccccc2OC1,inactive: 2.22%
24,Nc1cccc([As](=O)(O)c2ccccc2)c1,inactive: -13%
